Measurements published in PMC8689565 (mBio, 2021).

Biological target: the molecule itself
Assay: non-reducing gel of immunoprecipitated STING; HT1080 cells with or without 1 h R406 pretreatment, cGAMP for 3 h; IP with STING antibody, nonreducing gel (no DTT in lysate and loading buffer), detected with STING antibody

B1: STING (natural protein, human (endogenous in HT1080), UniProt Q86WV6 1-379, looked up)
chain: MPHSSLHPSIPCPRGHGAQKAALVLLSACLVTLWGLGEPPEHTLRYLVLHLASLQLGLLLNGVCSLAEELRHIHSRYRGSYWRTVRACLGCPLRRGALLLLSIYFYYSLPNAVGPPFTWMLALLGLSQALNILLGLKGLAPAEISAVCEKGNFNVAHGLAWSYYIGYLRLILPELQARIRTYNQHYNNLLRGAVSQRLYILLPLDCGVPDNLSMADPNIRFLDKLPQQTGDHAGIKDRVYSNSIYELLENGQRAGTCVLEYATPLQTLFAMSQYSQAGFSREDRLEQAKLFCRTLEDILADAPESQNNCRLIAYQEPADDSSFSLSQEVLRHLRQEEKEEVTVGSLKTSAVPSTSTMSQEPELLISGMEKPLPLRTDFS
notes: precipitated or detected with a STING antibody; cells were transfected with cGAMP; also called endogenous STING; source: endogenous, HT1080 lysate
stoichiometry N: 2
